SMILES strings stand for the structures.

Amino acid sequences for entries named in this document (tags omitted). Residues count along the entry.
UniProt P56726, 33-793 limits assumed: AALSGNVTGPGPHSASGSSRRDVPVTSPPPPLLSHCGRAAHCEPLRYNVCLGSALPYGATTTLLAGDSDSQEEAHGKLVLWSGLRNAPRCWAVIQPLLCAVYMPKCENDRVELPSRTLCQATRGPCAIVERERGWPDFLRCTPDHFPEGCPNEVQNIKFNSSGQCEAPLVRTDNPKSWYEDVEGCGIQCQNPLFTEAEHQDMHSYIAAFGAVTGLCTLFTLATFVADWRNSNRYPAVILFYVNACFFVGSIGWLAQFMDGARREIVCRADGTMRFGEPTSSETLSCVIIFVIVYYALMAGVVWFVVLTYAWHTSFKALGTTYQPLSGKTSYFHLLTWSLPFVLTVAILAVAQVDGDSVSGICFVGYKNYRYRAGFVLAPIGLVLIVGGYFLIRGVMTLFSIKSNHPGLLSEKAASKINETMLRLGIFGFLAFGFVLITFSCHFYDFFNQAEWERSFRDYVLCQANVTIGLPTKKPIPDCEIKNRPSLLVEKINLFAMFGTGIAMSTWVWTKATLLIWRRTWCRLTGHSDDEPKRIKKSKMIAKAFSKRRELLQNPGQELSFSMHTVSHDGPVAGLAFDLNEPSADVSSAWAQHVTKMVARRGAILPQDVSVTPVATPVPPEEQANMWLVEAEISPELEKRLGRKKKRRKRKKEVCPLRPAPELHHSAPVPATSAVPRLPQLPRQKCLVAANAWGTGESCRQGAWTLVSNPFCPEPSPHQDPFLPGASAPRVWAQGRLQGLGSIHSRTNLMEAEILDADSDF

These results are taken from publication PMC3115942, “A Novel Synthetic Smoothened Antagonist Transiently Inhibits Pancreatic Adenocarcinoma Xenografts in a Mouse Model” (PLoS ONE, 2011).

Assay [1] relates to Hh pathway in Shh-L2 cells. In words: Hh reporter assay in Shh-L2 cells. Conditions: for reduction of activity relative to MS-0022: Shh-L2 cells; for IC50: read-out: IC50 (Shh-L2), pathway inhibition in Shh induced Shh-L2 cells, 48 hours treatment. A general note: In a reporter assay the amount or activity of a reporter protein is the signal.
Another assay has as its target SMO (Mus musculus, UniProt P56726). Description: BODIPY-cyclopamine competition assay. Format: binding. Particulars: read-out: IC50 (nM, BODIPY-cyclopamine inhib.); competition with BODIPY-cyclopamine. How it is done: BODIPY assay was performed to determine competition with cyclopamine as described previously, [66].

Consider `Cc1cccn2cc(-c3ccc(NC(=O)c4ccccc4F)cc3)nc12`, for which, in assay [1], the “reduction of activity relative to MS-0022” value was found to be 1.6 fold. Besides, the IC50 (as a rule, the concentration that gives 50% inhibition) in assay [1] is 161 nM; at SMO, 93 nM.

Regarding `COc1ccc(C(=O)Nc2ccc(-c3cn4ccccc4n3)cc2)cc1`, the “reduction of activity relative to MS-0022” value in assay [1] is given as 1.8 fold. Further, the IC50 in assay [1] came to 181 nM; on SMO it was 287 nM.
